The test system of experiment [1] is PPT CGNPs infected with SMO-W281C. Put plainly: methyl-[3H]-thymidine incorporation (proliferation) of virally transduced PPT CGNPs after removal of SHH. The class given is cell-based, mice. The settings on record: 5 μM vismodegib. The text has this:
It has previously been noted that Hh-driven tumor cells rapidly lose their Hh pathway dependence during culturing (Sasai et al., 2006). However, CGNPs proliferate in vivo in a Hh dependent manner and maintain their Hh pathway dependence in culture for a finite period (Wechsler-Reya and Scott, 1999). CGNPs isolated from Ptch1loxp/loxp Tp53loxp/loxp Rosa26LSL-tdTomato (PPT) pups were infected with lentiviral constructs expressing a SMO variant together with an enhanced green fluorescent protein (eGFP)-Cre fusion protein (FIG. 12C). The Cre recombinase induces loss of Ptch1 and thus ensures that only transduced CGNPs can proliferate in the absence of exogenous Sonic hedgehog ligand (SHH; FIG. 11D). […] Proliferation by methyl-[3H]-thymidine incorporation was monitored, while Cre-dependent tandem dimer (td) Tomato expression enabled visualization and quantification of infected cells. This system also enabled better model patient genetics because most of the SMO mutations were identified in tumors that harbored TP53 mutations and were driven by loss of PTCH1. […] It was confirmed that CGNPs were infected at similar frequencies by fluorescence-activated cell sorting (FACS) analysis for Cre-dependent tdTomato reporter expression, and that the SMO variants were expressed at equivalent levels by quantitative reverse transcription (qRT) PCR. […]
On the technique in general: Dividing cells build labelled thymidine or BrdU into new DNA.

Sequences of proteins named here, by UniProt entry; tags and fusion partners are left off. Residues count along the entry.
UniProt Q99835, 28-787 W281C: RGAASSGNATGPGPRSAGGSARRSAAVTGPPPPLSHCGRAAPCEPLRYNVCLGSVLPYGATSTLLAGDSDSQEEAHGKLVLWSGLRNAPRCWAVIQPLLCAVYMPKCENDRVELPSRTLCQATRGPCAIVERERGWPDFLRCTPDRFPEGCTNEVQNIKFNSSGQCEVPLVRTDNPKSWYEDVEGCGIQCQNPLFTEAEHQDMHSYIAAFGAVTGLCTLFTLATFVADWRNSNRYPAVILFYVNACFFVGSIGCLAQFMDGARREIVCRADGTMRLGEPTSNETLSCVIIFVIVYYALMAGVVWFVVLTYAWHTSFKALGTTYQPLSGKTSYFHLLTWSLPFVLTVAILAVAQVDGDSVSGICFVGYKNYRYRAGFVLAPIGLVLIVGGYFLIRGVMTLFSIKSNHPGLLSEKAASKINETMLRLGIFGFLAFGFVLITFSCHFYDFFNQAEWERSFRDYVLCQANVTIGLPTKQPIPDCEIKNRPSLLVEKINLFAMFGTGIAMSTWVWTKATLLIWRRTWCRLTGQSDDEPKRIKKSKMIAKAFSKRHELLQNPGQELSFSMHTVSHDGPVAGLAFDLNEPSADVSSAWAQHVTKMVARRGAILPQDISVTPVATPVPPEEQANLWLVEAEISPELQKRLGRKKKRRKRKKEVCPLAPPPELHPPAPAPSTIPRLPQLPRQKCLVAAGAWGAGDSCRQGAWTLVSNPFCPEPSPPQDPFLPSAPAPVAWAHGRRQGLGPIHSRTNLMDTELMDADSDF

For a further experiment, the target named is SMO-W281C (Homo sapiens, UniProt Q99835, W281C). As to conditions: 5 nM [3H]-vismodegib, cell surface levels similar to SMO-WT, FIG. 12B.

Consider `CS(=O)(=O)c1ccc(C(=O)Nc2ccc(Cl)c(-c3ccccn3)c2)c(Cl)c1` [vismodegib], for which the “proliferation in the presence of vismodegib” value in experiment [1] is on record as “continued to proliferate at near untreated levels”. Also, the “binding of [3H]-labeled vismodegib” value on SMO-W281C was “impaired”.
